Reference: ChEMBL document CHEMBL1133148 (Bioorg Med Chem Lett, 2000)

Protein sequences, listed by entry. Tags and fused reporters are not part of them.
UniProt P33535, whole entry: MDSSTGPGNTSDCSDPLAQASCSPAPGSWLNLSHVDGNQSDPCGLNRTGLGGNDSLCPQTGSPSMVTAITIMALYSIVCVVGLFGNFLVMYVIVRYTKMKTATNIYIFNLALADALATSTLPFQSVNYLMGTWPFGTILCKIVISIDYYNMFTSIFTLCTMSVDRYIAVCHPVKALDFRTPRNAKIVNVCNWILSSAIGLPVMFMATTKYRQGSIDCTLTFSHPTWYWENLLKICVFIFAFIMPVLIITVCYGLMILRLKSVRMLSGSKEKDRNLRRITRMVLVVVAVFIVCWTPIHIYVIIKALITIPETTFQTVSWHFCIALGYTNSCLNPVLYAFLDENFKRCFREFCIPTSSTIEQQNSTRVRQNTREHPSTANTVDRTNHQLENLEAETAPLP

Target: Mu-type opioid receptor (Rattus norvegicus, UniProt P33535)
Experiment: Binding affinity towards Opioid receptor mu 1
Outline: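 Rat brain minus cerebellum, homogenised in 0.32 M sucrose and spun. The membrane pellet was preincubated 1 h at room temperature in Tris pH 7.5/NaCl to strip endogenous opioids. Nonspecific binding with 10 μM DAMGO. Filtration, scintillation counting.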

## C[C@@H](NC(=O)[C@@H](N)Cc1ccc(O)cc1)C(=O)NCC(=O)N(C)[C@@H](Cc1ccccc1)C(=O)NCCO [DAMGO]
  Ki: 1.64 nM
